Assay results published in US10562947B2, “Compositions and methods for preventing or treating diseases, conditions or processes characterized by aberrant fibroblast proliferation and extracellular matrix deposition” (MOERAE MATRIX, INC., priority 2011, dated 2020).

Sequences of proteins named here, by UniProt entry; tags and fusion partners are left off. A change or cut given only in a name is not applied to a line headed by its entry.
UniProt P06493, whole entry: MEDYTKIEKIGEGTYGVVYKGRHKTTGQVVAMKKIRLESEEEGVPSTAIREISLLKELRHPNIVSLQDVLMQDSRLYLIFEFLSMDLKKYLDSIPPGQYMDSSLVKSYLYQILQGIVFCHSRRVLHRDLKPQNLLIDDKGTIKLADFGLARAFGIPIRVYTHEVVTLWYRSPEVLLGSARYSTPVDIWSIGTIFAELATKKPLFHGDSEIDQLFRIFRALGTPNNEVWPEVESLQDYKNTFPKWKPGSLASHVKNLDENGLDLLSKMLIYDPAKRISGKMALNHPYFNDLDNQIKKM
UniProt Q13464: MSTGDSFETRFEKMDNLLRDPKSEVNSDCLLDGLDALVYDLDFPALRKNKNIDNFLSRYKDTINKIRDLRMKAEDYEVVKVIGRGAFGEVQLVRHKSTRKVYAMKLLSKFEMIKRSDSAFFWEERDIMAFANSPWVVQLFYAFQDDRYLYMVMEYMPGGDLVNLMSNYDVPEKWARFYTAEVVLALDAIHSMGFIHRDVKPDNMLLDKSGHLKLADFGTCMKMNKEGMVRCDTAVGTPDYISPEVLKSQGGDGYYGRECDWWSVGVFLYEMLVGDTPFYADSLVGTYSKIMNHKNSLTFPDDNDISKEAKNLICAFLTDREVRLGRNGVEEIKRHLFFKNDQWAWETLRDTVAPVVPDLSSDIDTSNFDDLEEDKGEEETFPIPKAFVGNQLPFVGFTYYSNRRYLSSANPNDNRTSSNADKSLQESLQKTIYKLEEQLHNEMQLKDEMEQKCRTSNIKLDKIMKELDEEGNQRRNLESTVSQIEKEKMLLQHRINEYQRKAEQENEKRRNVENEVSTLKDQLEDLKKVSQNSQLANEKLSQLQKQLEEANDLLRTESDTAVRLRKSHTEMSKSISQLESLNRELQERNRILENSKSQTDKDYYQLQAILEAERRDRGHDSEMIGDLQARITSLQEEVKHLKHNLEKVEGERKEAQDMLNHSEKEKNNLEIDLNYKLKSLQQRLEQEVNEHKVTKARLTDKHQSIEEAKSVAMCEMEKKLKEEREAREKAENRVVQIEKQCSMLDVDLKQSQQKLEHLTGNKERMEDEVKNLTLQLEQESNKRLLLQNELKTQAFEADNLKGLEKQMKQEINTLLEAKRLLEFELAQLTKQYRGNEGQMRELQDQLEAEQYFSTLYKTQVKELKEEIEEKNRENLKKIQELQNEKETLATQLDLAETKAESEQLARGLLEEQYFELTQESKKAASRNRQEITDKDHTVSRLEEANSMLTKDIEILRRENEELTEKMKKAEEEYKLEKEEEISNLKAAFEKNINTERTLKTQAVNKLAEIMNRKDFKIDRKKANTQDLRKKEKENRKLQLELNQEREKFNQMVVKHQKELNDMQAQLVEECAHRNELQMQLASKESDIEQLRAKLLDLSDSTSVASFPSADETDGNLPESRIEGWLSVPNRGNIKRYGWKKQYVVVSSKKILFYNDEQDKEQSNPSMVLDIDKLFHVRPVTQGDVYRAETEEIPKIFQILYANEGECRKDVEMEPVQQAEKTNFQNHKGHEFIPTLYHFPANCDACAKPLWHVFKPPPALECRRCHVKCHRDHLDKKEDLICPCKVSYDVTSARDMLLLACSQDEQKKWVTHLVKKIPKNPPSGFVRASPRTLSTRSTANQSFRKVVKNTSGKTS
UniProt Q9H422: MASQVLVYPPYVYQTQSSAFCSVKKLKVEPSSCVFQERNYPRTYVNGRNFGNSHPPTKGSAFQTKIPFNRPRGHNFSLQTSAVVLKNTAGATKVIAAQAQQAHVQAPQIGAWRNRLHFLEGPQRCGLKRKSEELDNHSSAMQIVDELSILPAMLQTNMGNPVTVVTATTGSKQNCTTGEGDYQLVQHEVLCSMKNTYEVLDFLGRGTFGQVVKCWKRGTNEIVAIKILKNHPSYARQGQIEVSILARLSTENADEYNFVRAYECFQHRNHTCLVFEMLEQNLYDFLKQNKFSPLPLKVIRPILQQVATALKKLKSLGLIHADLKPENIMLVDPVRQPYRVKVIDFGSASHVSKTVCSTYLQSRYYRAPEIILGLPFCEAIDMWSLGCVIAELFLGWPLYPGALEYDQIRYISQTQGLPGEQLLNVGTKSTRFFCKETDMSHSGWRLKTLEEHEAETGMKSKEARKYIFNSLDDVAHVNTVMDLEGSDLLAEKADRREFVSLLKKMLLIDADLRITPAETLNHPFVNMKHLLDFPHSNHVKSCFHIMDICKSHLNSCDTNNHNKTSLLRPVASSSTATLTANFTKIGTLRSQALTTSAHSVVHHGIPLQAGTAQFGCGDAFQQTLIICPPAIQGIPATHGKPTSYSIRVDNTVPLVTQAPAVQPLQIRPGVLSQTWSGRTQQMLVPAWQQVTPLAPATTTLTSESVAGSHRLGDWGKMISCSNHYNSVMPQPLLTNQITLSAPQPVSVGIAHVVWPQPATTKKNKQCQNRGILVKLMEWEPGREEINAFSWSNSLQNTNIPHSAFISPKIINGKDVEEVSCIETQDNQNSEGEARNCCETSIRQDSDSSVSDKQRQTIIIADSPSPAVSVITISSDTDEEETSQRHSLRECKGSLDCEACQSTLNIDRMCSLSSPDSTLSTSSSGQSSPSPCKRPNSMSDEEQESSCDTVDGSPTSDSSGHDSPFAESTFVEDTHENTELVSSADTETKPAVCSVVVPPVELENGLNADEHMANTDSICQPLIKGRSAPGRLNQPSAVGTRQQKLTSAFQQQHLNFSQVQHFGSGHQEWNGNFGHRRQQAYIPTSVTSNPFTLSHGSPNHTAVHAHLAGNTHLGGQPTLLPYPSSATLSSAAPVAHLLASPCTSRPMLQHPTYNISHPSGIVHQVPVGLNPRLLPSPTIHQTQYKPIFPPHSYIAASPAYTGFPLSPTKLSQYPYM
UniProt P78368: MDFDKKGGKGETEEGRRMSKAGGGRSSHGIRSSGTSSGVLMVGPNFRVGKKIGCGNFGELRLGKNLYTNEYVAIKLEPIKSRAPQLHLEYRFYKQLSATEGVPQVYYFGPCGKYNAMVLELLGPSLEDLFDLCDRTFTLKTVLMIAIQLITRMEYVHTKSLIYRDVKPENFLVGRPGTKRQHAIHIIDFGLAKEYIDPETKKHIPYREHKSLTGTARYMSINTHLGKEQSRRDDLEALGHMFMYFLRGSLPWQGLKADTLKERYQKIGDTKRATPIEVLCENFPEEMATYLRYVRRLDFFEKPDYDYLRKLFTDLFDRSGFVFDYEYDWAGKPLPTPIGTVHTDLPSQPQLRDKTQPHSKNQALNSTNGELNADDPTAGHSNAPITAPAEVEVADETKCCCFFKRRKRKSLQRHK

Columns and labels:
Assay in all cases: Kinase Profiling Assay
Assay type in all cases: biochemical
Settings in all cases: 100 μM peptide
[1] = molecular target: CDK1/cyclinB(h) (Homo sapiens, UniProt P06493)
Procedure: (§1) Every kinase activity measurement was conducted in duplicate.
(§2) In addition to determining the IC50 of the compound, the specificity of MK2 inhibitory peptides was assessed by examining activities of all 266 human kinases available for testing in the Millipore kinase profiling service (Table 1).

[2] = molecular target: T1, ROCK-I(h) (Homo sapiens, UniProt Q13464)
T1 construct: purchased Millipore (IC50 Profiler Express service)
Procedure: as §1, §2

[3] = molecular target: T2, HIPK3(h) (Homo sapiens, UniProt Q9H422)
T2 construct: purchased Millipore
Procedure: as §1, §2

[4] = molecular target: Abl(Y253F)(h) (Homo sapiens, UniProt P00519, Y253F)
Procedure: as §1, §2

[5] = molecular target: T3, DDR2(h) (Homo sapiens, UniProt Q16832)
T3 sequence (Q16832 22-855): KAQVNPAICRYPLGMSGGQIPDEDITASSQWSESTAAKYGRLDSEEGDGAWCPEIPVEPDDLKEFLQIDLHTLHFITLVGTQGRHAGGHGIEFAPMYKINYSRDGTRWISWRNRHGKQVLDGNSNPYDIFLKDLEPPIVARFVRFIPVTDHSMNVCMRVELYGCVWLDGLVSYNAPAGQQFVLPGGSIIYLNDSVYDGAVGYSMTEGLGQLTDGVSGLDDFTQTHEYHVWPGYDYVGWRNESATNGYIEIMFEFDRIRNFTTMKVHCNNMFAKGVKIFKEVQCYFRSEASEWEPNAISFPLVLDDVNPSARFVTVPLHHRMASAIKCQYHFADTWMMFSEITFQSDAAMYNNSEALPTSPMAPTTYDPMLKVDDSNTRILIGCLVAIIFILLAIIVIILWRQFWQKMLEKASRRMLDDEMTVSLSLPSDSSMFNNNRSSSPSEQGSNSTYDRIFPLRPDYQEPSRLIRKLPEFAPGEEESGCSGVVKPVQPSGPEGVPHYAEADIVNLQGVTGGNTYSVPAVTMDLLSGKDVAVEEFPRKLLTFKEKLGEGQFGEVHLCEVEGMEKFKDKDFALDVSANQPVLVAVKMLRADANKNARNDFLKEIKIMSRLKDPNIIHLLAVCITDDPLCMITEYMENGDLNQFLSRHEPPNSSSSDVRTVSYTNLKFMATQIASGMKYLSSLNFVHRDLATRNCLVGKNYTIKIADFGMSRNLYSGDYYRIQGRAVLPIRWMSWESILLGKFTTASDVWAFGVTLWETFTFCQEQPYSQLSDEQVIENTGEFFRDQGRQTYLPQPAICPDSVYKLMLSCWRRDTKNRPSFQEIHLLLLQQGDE
Procedure: as §1, §2

[6] = molecular target: CK1γ2(h) (Homo sapiens, UniProt P78368)
Procedure: as §1, §2

[7] = molecular target: T4, IKKα(h) (Homo sapiens, UniProt O15111)
T4 construct: purchased Millipore
T4 sequence (O15111 1-745): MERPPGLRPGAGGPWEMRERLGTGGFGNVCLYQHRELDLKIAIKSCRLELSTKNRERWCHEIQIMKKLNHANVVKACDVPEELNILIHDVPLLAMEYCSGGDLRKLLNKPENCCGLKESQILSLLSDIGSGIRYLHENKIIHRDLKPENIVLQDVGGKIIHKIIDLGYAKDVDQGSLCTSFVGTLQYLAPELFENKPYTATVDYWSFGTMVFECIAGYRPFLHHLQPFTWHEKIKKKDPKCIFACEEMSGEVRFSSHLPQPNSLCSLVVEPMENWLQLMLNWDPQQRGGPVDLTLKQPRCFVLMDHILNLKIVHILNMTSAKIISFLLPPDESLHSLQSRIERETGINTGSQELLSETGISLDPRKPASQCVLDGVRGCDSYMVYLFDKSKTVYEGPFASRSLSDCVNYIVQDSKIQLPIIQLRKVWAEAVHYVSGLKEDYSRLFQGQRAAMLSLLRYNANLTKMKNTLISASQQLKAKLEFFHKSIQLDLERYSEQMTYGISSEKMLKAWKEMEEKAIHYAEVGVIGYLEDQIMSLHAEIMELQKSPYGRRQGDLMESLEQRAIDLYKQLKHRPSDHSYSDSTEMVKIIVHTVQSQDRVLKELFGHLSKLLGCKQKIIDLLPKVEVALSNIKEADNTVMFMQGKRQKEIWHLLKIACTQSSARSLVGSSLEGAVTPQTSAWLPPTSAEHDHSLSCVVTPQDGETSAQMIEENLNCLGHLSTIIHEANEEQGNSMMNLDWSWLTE
Procedure: as §1, §2

[8] = molecular target: EGFR(T790M)(h) (Homo sapiens, UniProt P00533, T790M)
Procedure: as §1, §2

[9] = molecular target: T5, Ret(V804M)(h) (Homo sapiens, UniProt P07949, V804M)
T5 construct: purchased Millipore (IC50 Profiler Express service)
Procedure: as §1, §2

[10] = molecular target: eEF-2K(h) (Homo sapiens, UniProt O00418)
Procedure: as §1, §2

Sequence: YARAAARQARAKALNRQLGVA (Mammalian) [MMI-0200]
- CDK1/cyclinB(h) % activity [1]: 115%
- ROCK-I(h) % activity [2]: 117%
- HIPK3(h) % activity [3]: 105%
- Abl(Y253F)(h) % activity [4]: 102%
- DDR2(h) % activity [5]: 104%
- CK1γ2(h) % activity [6]: 104%
- IKKα(h) % activity [7]: 104%
- EGFR(T790M)(h) % activity [8]: 113%
- Ret(V804M)(h) % activity [9]: 105%
- eEF-2K(h) % activity [10]: 136%
